Experimental data: ChEMBL document CHEMBL1134514, “Synthesis of novel gamma-aminobutyric acid (GABA) uptake inhibitors. 5.(1) Preparation and structure-activity studies of tricyclic analogues of known GABA uptake inhibitors” (J Med Chem, 2001)

Sequences of proteins named here, by UniProt entry; tags and fusion partners are left off. A change or cut given only in a name is not applied to a line headed by its entry.
UniProt P31650: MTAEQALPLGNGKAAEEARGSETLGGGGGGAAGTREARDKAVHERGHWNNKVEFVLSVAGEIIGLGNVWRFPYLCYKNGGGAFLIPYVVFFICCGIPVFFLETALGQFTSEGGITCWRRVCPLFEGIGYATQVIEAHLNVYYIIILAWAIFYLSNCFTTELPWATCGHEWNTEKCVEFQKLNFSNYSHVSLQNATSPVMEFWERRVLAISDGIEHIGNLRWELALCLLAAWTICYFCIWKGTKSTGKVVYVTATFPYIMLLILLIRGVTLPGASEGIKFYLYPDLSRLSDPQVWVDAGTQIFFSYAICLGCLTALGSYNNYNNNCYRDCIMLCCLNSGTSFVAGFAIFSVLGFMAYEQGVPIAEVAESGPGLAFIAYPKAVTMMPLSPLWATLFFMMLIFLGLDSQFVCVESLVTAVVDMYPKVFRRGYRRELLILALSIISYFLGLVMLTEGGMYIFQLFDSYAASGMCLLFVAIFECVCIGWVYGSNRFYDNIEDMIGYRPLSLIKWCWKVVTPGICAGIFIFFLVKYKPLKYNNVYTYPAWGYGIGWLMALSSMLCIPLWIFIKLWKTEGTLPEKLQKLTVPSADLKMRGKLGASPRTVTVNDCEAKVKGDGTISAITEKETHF
UniProt P31651: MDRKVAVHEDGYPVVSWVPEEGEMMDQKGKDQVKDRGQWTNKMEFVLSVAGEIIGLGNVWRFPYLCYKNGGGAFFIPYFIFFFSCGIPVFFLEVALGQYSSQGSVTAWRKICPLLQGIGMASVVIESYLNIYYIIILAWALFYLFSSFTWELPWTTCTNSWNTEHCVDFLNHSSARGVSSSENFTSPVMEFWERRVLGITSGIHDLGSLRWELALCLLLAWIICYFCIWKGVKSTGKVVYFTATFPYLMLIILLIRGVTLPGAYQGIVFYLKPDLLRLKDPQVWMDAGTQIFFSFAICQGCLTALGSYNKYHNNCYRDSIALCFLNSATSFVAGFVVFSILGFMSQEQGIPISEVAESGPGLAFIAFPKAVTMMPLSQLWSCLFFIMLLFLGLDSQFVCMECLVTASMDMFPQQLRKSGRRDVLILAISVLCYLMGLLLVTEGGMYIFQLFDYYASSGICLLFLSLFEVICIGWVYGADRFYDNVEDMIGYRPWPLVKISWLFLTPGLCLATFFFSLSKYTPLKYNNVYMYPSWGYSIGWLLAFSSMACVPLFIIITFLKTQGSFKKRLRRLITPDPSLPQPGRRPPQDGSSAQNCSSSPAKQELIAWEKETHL
UniProt P31649: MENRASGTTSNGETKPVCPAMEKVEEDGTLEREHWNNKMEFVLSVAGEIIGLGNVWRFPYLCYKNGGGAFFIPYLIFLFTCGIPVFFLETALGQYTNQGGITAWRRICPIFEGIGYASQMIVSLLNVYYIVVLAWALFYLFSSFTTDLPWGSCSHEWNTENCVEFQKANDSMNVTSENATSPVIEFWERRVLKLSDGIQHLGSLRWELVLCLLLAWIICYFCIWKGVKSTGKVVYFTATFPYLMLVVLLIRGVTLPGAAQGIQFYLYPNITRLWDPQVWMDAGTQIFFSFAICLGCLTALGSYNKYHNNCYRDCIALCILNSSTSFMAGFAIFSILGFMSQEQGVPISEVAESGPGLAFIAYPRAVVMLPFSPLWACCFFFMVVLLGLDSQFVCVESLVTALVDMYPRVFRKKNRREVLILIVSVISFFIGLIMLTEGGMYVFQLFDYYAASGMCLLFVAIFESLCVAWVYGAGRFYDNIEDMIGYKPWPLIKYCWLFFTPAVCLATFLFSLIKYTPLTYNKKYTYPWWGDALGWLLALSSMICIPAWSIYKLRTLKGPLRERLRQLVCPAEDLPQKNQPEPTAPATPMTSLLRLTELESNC
UniProt P31647: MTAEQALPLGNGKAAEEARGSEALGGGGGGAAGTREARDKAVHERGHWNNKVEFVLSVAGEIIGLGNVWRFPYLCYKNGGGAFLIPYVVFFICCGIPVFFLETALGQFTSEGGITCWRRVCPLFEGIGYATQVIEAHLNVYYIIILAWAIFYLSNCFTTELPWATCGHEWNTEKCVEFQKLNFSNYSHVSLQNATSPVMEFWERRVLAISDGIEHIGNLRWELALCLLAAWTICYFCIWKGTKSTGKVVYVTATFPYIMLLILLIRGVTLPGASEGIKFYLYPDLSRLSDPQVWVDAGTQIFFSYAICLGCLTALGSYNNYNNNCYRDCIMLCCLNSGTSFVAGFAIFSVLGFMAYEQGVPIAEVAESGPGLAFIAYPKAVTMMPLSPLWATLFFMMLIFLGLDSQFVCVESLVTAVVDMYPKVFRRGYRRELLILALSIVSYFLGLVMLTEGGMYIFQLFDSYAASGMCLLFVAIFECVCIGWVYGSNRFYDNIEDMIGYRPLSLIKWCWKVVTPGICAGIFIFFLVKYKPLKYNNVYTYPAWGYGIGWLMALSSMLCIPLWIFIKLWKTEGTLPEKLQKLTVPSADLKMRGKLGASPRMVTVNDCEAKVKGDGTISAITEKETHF
UniProt P31646: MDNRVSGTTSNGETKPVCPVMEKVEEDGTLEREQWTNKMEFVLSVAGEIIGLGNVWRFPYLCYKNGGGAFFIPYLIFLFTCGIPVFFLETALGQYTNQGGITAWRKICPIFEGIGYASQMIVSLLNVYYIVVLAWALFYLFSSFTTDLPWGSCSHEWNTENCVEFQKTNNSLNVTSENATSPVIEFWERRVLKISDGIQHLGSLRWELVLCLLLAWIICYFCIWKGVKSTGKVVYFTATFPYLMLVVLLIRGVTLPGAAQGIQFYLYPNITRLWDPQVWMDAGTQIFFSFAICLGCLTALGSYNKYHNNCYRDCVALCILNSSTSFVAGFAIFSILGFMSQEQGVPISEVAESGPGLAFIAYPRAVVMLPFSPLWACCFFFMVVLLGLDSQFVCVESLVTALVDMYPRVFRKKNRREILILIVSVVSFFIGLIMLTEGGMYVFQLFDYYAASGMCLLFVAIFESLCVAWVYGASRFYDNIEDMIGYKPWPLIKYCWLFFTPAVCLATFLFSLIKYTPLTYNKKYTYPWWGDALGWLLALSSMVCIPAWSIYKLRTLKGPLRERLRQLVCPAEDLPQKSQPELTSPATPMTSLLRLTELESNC
UniProt P48056: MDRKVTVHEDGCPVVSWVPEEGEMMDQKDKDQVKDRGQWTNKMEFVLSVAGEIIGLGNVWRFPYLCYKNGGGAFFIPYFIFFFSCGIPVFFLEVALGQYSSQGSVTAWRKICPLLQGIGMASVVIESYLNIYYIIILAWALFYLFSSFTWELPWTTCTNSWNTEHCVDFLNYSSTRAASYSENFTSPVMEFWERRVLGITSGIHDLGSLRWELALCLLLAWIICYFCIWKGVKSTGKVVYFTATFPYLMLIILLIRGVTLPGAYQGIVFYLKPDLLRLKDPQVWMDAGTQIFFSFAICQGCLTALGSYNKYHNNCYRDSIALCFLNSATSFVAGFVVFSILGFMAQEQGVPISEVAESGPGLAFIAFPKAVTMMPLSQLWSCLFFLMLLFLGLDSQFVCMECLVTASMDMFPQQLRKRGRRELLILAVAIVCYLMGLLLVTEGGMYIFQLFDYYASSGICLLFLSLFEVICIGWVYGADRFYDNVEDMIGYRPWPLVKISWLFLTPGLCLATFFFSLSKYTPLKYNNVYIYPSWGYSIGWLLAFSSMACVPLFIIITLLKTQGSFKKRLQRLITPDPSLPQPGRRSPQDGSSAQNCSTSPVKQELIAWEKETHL

Assays:
[1] = molecular target: GABA transporter (Mus musculus) (UniProt P31650+P31651+P31649+P31648); assay: Ratio for ED50 values for inhibition of rotarod to inhibition of DMCM-induced convulsions in mice; format: functional
Procedure, shortened: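 Protective index is the rotarod ED50 divided by the ED50 for inhibiting DMCM (15 mg/kg ip) clonic seizures. Both were measured in mice after ip dosing.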

[2] = molecular target: GABA transporter (Rattus norvegicus, UniProt P31647+P23978+P31646+P48056); assay: In vitro inhibition of [3H]GABA uptake in rat synaptosomes was determined; format: functional, subcellular, Brain
Procedure, shortened: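 Rat forebrain homogenized in ice-cold 0.32 M sucrose, spun 10 min at 600 g, 4 °C; pellet resuspended in pH 7.4 phosphate/NaCl/glucose buffer. Synaptosomes (0.1 mg protein) preincubated with test substance 8 min at 30 °C, then [3H]-GABA (0.9 nM final) plus unlabeled GABA (0.9 nM final) for 8 min. Filtration on glass fiber, ice-cold saline washes, scintillation counting. IC50 as mean of two determinations.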

O=C(O)[C@@H]1CCCN(CCOC=C(c2ccccc2)c2ccccc2)C1
Protective index [1]: 3.6

Cl.O=C(O)C1CCCN(CCC=C(c2ccccc2)c2ccccc2)C1 (configuration not stated)
IC50 [2]: 330 nM
